Target: MT1-MMP Hemopexin domain (PEX) (Homo sapiens, UniProt P50281)
Test: MT1-MMP fluorescence polarisation competition binding assay
Conditions: Plate 1; read-out: Plate 1 Ki (FP-comp)
Text: Due to their high affinities to the MT1-MMP Hemopexin domain (PEX), the fluoresceinated derivatives of 17-69-07 and 17-69-12 (denoted as 17-69-07-N040, 17-69-07-N041 and 17-69-12-N004) can be used for competition experiments (using FP for detection)
Here, a pre-formed complex of PEX with the fluorescent PEX-binding tracer is titrated with free, non-fluoresceinated bicyclic peptide. Since all 17-69-based peptides are expected to bind at the same site, the titrant will displace the fluorescent tracer from PEX. Dissociation of the complex can be measured quantitatively, and the Kd of the competitor (titrant) to the target protein determined. The advantage of the competition method is that the affinities of non-fluoresceinated bicyclic peptides can be determined accurately and rapidly.
Concentrations of tracer are usually at the Kd or below (here, 1 nM), and the binding protein (here, hemopexin of MT1-MMP) is at a 15-fold excess such that >90% of the tracer is bound. Subsequently, the non-fluorescent competitor bicyclic peptide (usually just the bicycle core sequence) is titrated, such that it displaces the fluorescent tracer from the target protein. The displacement of the tracer is measured and associated with a drop in fluorescence polarisation. The drop in fluorescence polarisation is proportional to the fraction of target protein bound with the non-fluorescent titrant, and thus is a measure of the affinity of titrant to target protein.
In certain experiments, collagen binding tracers (i.e. 17-88-N006 and 17-88-226-N002) were used in an analogous manner to the hemopexin binding tracers.
The raw data is fit to the analytical solution of the cubic equation that describes the equilibria between fluorescent tracer, titrant, and binding protein. The fit requires the value of the affinity of fluorescent tracer to the target protein, which can be determined separately by direct binding FP experiments (see previous section). The curve fitting was performed using Sigmaplot 12.0 and used an adapted version of the equation described by Zhi-Xin Wang (FEBS Letters 360 (1995) 111-114).

Substance	Ki
ALPP-(SEQ ID NO: 13)-A [17-120-09-T03]	78 nM
[Ac]LPP-(SEQ ID NO: 62) [BCY9965]	76 nM
[Ac]LPP-(SEQ ID NO: 66) [BCY11149]	80 nM
[Ac]LPP-(SEQ ID NO: 67) [BCY11150]	396 nM
[Ac]LPP-(SEQ ID NO: 68) [BCY11151]	35 nM
[Ac]LPP-(SEQ ID NO: 69) [BCY11152]	68 nM
[Ac]LPP-(SEQ ID NO: 70) [BCY11153]	43 nM
[Ac]LPP-(SEQ ID NO: 71) [BCY11154]	129 nM
[Ac]LPP-(SEQ ID NO: 72) [BCY11155]	459 nM
[Ac]LPP-(SEQ ID NO: 73) [BCY11163]	54 nM
[Ac]LPP-(SEQ ID NO: 74) [BCY11158]	124 nM
[Ac]LPY-(SEQ ID NO: 17) [BCY11148]	45 nM
[Ac]LYP-(SEQ ID NO: 17) [BCY11147]	53 nM

Same assay, conditions: Plate 2; read-out: Plate 2 Ki (FP-comp)

Substance	Ki
ALPP-(SEQ ID NO: 13)-A [17-120-09-T03]	107 nM
[Ac]LPP-(SEQ ID NO: 75) [BCY11160]	289 nM
[Ac]LP[dA]-(SEQ ID NO: 17) [BCY11167]	135 nM
[Ac]L[dA]P-(SEQ ID NO: 17) [BCY11166]	92 nM
[Ac][dA]PP-(SEQ ID NO: 17) [BCY11165]	72 nM

Same assay, conditions: tracer 17-69-07-N040 (hemopexin binding tracer); read-out: Kd (nM ± 95% CI)

Substance	Kd
SMT-(SEQ ID NO: 82)-A [17-129-01-T02]	525 nM
SQN-(SEQ ID NO: 100)-A [17-129-19-T02]	458 nM
SQT-(SEQ ID NO: 82)-A [17-129-01-T01]	499 nM
SRM-(SEQ ID NO: 98)-A [17-129-17-T01]	418 nM
SRS-(SEQ ID NO: 98)-A [17-129-17-T02]	369 nM
T-(SEQ ID NO: 94)-NA [17-129-13-T01]	248 nM
WSP-(SEQ ID NO: 127)-A [17-126-33-T01]	244 nM

Same assay, conditions: tracer 17-88-226-N002 (collagen binding tracer); read-out: Kd (nM ± 95% CI)

Substance	Kd
ALPP-(SEQ ID NO: 13)-A [17-120-09-T03]	32 ± 20.2 nM
Ac-ALPP-(SEQ ID NO: 13) [Ac-(17-120-09-T03)]	18.6 ± 6.96 nM
Sar3-ALPP-(SEQ ID NO: 13) [Sar3-A-(17-120-09-T03)]	16.3 ± 5.73 nM
Sar3-ALPP-(SEQ ID NO: 14) [Sar3-A-(17-120-09-T03) HArg2]	26.6 ± 9.31 nM
Sar3-ALPP-(SEQ ID NO: 15) [Sar3-A-(17-120-09-T03) Arg9]	8.28 ± 3.53 nM
Sar3-ALPP-(SEQ ID NO: 16) [Sar3-A-(17-120-09-T03) HArg9]	30.9 ± 10 nM

Same assay, conditions: tracer 17-88-N006 (collagen binding tracer); read-out: Kd (nM ± 95% CI)

Substance	Kd
ALPP-(SEQ ID NO: 13)-A [17-120-09-T03]	35.6 nM
SPPP-(SEQ ID NO: 13)-A [17-120-09-T05]	32.3 ± 6.81 nM
SPPP-(SEQ ID NO: 25)-A [17-120-15-T02]	76.7 ± 72.9 nM
SPPP-(SEQ ID NO: 40)-A [17-120-30-T01]	78.7 nM
SPPP-(SEQ ID NO: 43)-A [17-120-33-T01]	77.6 nM

Target: T1, human MT1 MMP14 protein, hemopexin domain (Homo sapiens, UniProt P50281)
T1 construct: human MT1 MMP14 protein, hemopexin domain (obtained from Merck Millipore); purchased Merck Millipore
Test: SPR (Biacore) binding
Conditions: Biacore 3000, 25° C., biotinylated protein on streptavidin CM5 chip
Protocol: Biacore experiments were performed to determine KD (nM) values of monomeric peptides binding to human MT1 MMP14 protein, hemopexin domain (obtained from Merck Millipore).
The protein was extensively desalted to remove uncoupled biotin using spin columns into PBS.
For analysis of peptide binding, a Biacore 3000 instrument was used utilising a CM5 chip (GE Healthcare). Streptavidin was immobilized on the chip using standard amine-coupling chemistry at 25° C. with HBS-N (10 mM HEPES, 0.15 M NaCl, pH 7.4) as the running buffer. Briefly, the carboxymethyl dextran surface was activated with a 7 minute injection of a 1:1 ratio of 0.4 M 1-ethyl-3-(3-dimethylaminopropyl) carbodiimide hydrochloride (EDC)/0.1 M N-hydroxy succinimide (NHS) at a flow rate of 10 μl/min. For capture of streptavidin, the protein was diluted to 0.2 mg/ml in 10 mM sodium acetate (pH 4.5) and captured by injecting 120 μl of streptavidin onto the activated chip surface. Residual activated groups were blocked with a 7 minute injection of 1 M ethanolamine (pH 8.5) and biotinylated MT1 MMP14 captured to a level of 1,200-1,800 RU. Buffer was changed to PBS/0.05% Tween 20 and a dilution series of the peptides was prepared in this buffer with a final DMSO concentration of 0.5%. The top peptide concentration was 100 nM with 6 further 2-fold dilutions. The SPR analysis was run at 25° C. at a flow rate of 50 μl/min with 60 seconds association and dissociation between 400 and 1,200 seconds depending upon the individual peptide. Data were corrected for DMSO excluded volume effects. All data were double-referenced for blank injections and reference surface using standard processing procedures and data processing and kinetic fitting were performed using Scrubber software, version 2.0c (BioLogic Software). Data were fitted using a simple 1:1 binding model allowing for mass transport effects where appropriate.

Substance	Kd
ALPP-(SEQ ID NO: 13)-A [17-120-09-T03]	14.8 nM
ALPP-(SEQ ID NO: 17) [BCY3959]	27.7 nM
ALPP-(SEQ ID NO: 17)-A [BCY10288]	52.5 nM
Ac-ALPP-(SEQ ID NO: 13) [Ac-(17-120-09-T03)]	15.1 nM
[Ac]-(SEQ ID NO: 17) [BCY9968]	163 nM
[Ac]APP-(SEQ ID NO: 17) [BCY9934]	36.9 nM
[Ac]EYP-(SEQ ID NO: 57) [BCY12405]	14.7 nM
[Ac]LAP-(SEQ ID NO: 17) [BCY9935]	39.2 nM
[Ac]LPA-(SEQ ID NO: 17) [BCY9936]	38 nM
[Ac]LPP-(SEQ ID NO: 17) [BCY9933]	30.7 nM
[Ac]LPP-(SEQ ID NO: 19) [BCY9938]	80.9 nM
[Ac]LPP-(SEQ ID NO: 46) [BCY9937]	77.8 nM
[Ac]LPP-(SEQ ID NO: 47) [BCY9943]	299 nM
[Ac]LPP-(SEQ ID NO: 48) [BCY9945]	1360 nM
[Ac]LPP-(SEQ ID NO: 49) [BCY9946]	372 nM
[Ac]LPP-(SEQ ID NO: 50) [BCY9949]	190 nM
[Ac]LPP-(SEQ ID NO: 51) [BCY9951]	364 nM
[Ac]LPP-(SEQ ID NO: 52) [BCY9952]	870 nM

Substance	Kd
[Ac]LPP-(SEQ ID NO: 53) [BCY9953]	296 nM
[Ac]LPP-(SEQ ID NO: 54) [BCY9954]	28.3 nM
[Ac]LPP-(SEQ ID NO: 55) [BCY9955]	73.5 nM
[Ac]LPP-(SEQ ID NO: 56) [BCY9957]	304 nM
[Ac]LPP-(SEQ ID NO: 57) [BCY9959]	5.87 nM
[Ac]LPP-(SEQ ID NO: 58) [BCY9960]	72.7 nM
[Ac]LPP-(SEQ ID NO: 59) [BCY9961]	13000 nM
[Ac]LPP-(SEQ ID NO: 60) [BCY9963]	7100 nM
[Ac]LPP-(SEQ ID NO: 61) [BCY9964]	35 nM
[Ac]LPP-(SEQ ID NO: 62) [BCY9965]	77.6 nM
[Ac]LPP-(SEQ ID NO: 63) [BCY9966]	240 nM
[Ac]LPP-(SEQ ID NO: 64) [BCY10223]	400 nM
[Ac]LPP-(SEQ ID NO: 65) [BCY10224]	97.8 nM
[Ac]LYP-(SEQ ID NO: 57) [BCY12401]	10.8 nM
[Ac]LYP-(SEQ ID NO: 76) [BCY12402]	8.9 nM
[Ac]LYP-(SEQ ID NO: 77) [BCY12403]	56.1 nM
[Ac]LYP-(SEQ ID NO: 78) [BCY12404]	27.4 nM

Reference: patent US20220024982A1, “BICYCLIC PEPTIDE LIGANDS SPECIFIC FOR MT1-MMP” (BicycleTx Limited, priority 2018, published 2022)
